Measurements: ChEMBL document CHEMBL5042489, “Inhibitors of the Hippo Pathway Kinases STK3/MST2 and STK4/MST1 Have Utility for the Treatment of Acute Myeloid Leukemia” (J Med Chem, 2022)

Columns and labels:
[1] = target: T1, Serine/threonine-protein kinase 4 (Homo sapiens, UniProt Q13043)
T1 sequence (Q13043 whole entry): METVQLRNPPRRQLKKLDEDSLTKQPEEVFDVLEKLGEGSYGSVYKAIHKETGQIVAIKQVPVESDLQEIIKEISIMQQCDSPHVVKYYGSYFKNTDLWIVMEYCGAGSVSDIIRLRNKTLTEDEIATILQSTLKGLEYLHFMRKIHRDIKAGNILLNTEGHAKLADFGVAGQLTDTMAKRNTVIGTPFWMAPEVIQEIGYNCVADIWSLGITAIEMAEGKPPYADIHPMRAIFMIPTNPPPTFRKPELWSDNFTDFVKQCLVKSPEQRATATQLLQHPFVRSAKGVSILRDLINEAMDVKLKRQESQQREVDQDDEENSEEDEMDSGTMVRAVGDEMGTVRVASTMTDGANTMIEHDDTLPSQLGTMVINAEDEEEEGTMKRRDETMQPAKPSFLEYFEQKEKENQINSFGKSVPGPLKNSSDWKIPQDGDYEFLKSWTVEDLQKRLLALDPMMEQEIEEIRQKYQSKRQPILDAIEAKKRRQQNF

[2] = target: T1, Serine/threonine-protein kinase 4; remark: listed apart in the source
[3] = target: T1, Serine/threonine-protein kinase 4; remark: listed apart in the source

SMILES | IC50 [1] | IC50 [2] | Ki [3]
COc1cccc(-c2c[nH]c3ncnc(N4CCOCC4)c23)c1 | 836 nM | – | –
NC(=O)c1cccc(-c2c[nH]c3ncnc(N4CCOCC4)c23)c1 | 50 nM | 259 nM | 96 nM
Fc1ccc(-c2c[nH]c3ncnc(N4CCOCC4)c23)cc1 | 836 nM | – | –
Fc1cccc(-c2c[nH]c3ncnc(N4CCOCC4)c23)c1 | 59 nM | 527 nM | –
Fc1ccccc1-c1c[nH]c2ncnc(N3CCOCC3)c12 | 223 nM | – | –
Cc1cccc(-c2c[nH]c3ncnc(N4CCOCC4)c23)c1 | 35 nM | 271 nM | –
COc1ccccc1-c1c[nH]c2ncnc(N3CCOCC3)c12 | 135 nM | – | –
CCN(CCO)c1ncnc2[nH]cc(-c3cccc(Cl)c3)c12 | 171 nM | – | –
Clc1cccc(-c2c[nH]c3ncnc(NCC4CC4)c23)c1 | 140 nM | – | –
c1csc(-c2c[nH]c3ncnc(N4CCOCC4)c23)c1 | 91 nM | – | –
Clc1cccc(-c2c[nH]c3ncnc(N4CCCCC4)c23)c1 | 48 nM | 549 nM | –
c1nc(N2CCOCC2)c2c(-c3ccoc3)c[nH]c2n1 | 275 nM | – | –
Cc1ccc(-c2c[nH]c3ncnc(N4CCOCC4)c23)cc1 | 846 nM | – | –
CN(C)c1ncnc2[nH]cc(-c3cccc(Cl)c3)c12 | 81 nM | – | –
CC1(O)CCN(c2ncnc3[nH]cc(-c4cccc(Cl)c4)c23)CC1 | 145 nM | – | –
CC1(N)CCN(c2ncnc3[nH]cc(-c4cccc(Cl)c4)c23)CC1 | 163 nM | – | –
c1coc(-c2c[nH]c3ncnc(N4CCOCC4)c23)c1 | 142 nM | – | –
OCCCNc1ncnc2[nH]cc(-c3cccc(Cl)c3)c12 | 94 nM | 552 nM | –
